Measurements from patent publication US20130239239A1, “LMCD1 CANCER MARKERS AND METHODS FOR THEIR USE” (Academia Sinica, priority 2012, published 2013).

System: LMCD1 transfectants in SK-Hep1 cells
Experiment: Wound healing assay in LMCD1 stable transfectants of SK-Hep1 cells
Settings: 25 μM; mock and wtLMCD1 cells; 6 h pre-treatment, drug present during migration

CCN(CC)CCCC(C)Nc1nc(C)cc(Nc2ccc3nc(C)cc(N)c3c2)n1 (stereo not shown) [NSC23766]
migration inhibition (wound closure): 12.1˜16.4%
